## Measured affinities in a library of Ab-14 heavy chain variants

Data: MIT Lincoln Laboratory AlphaSeq set, Engelhart et al. 2022, doi:10.1038/s41597-022-01779-4, as distributed in FLAb.

The target is the same throughout: PDVDLGDISGINAS, from the HR2 region of SARS-CoV-2 spike.

Parent: Ab-14, a human scFv built as VH, a (GGGGS)3 linker, VL. Only the CDRs of the heavy chain vary.
VH: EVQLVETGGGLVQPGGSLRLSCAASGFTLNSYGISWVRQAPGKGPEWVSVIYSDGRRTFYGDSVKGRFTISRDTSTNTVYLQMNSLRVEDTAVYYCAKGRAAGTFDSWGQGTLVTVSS
VL: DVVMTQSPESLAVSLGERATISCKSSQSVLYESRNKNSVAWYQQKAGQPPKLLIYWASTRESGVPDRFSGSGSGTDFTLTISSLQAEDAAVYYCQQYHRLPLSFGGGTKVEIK

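The parent was found by panning a naive human phage display library on the peptide. Variants in AAYL49 differ from the parent at up to three CDR positions; double and triple changes were sampled at random. In AlphaSeq, yeast of one mating type display the scFv and yeast of the other type display the target. After mating in shaken culture at 30 °C for 16 h, diploids were selected and their barcode pairs sequenced. Scores were corrected for input abundance and mapped to Kd with protein pairs of known affinity run in the same pool. The assay was run in three technical replicates.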

Variants are written as CDR1, CDR2 and CDR3 of the heavy chain (limits as in the source). Parent: GFTLNSYGIS, VIYSDGRRTFYGDSVK, GRAAGTFDS.
Affinities are written as log10 Kd with Kd in nM; a lower number is a better binder.
An entry "nd" has no value in the source: the pair was not observed among the diploids in that replicate. This suggests poor binding but is not conclusive.
Parent in this assay: reference entry 0.65, copy in this library 4.11 (one replicate of three).
As a blank, each scFv also met three strains without target: over library AAYL49, 15% of these pairings were detected, typically at 4.06 and seldom below 2.83. Also given: how often the same scFv was detected with the empty control strains, with their mean in brackets.

| CDR-H1 | CDR-H2 | CDR-H3 | log10 Kd, replicates | control signals |
|---|---|---|---|---|
| GFTLNSWGIS | VIYSDGRRTFYGDSRH | GRAAGTFDS | 4.43 nd nd | 0 of 9 |
| GFTLNSYKIS | KIYSDGRRTFYGDSVK | MRAAGTFDS | 6.08 5.27 5.97 | 1 of 9 (4.48) |
| GFTLNSYGIS | VIYSDGRRTFYGDSVI | GRAAGTYSS | nd nd nd | 3 of 9 (3.15) |
| GFTLNSYGIY | VIYSDKRRTFYGDSVK | GRAVGTFDS | nd nd 3.43 | 0 of 9 |
| GFTPNSYGIS | VIYSDGRRTFYGDSVL | GRAAGAFDS | nd nd nd | 0 of 9 |
| GFTLNSYGIS | VIYSMGRRTFYGDLVK | GRAAGTFDS | nd 5.00 3.98 | 6 of 9 (4.24) |
| GFTLNSYGSS | VIYSDGRRTFYGDSVK | GRAAGTKDS | nd nd nd | 0 of 9 |
| GFKLNSYGIS | VIYSDGRRTFYGDSVK | GRAAGTMFS | nd nd nd | 0 of 9 |
| GFTLNSYGIS | VIYSNYRRTFYGDSVK | GRAAGTHDS | nd nd nd | 0 of 9 |
| GFTLNSYGIS | WIYSDGRETFYGDSVR | GRAAGTFDS | nd nd nd | 0 of 9 |
| GFTLNPYGIS | VIYSDGRRTFYGDSVK | GRAAGSFDS | 3.61 nd 5.98 | 3 of 9 (3.68) |
| GFTLNSYGIS | VICSDGLRTFYGDGVK | GRAAGTFDS | nd nd nd | 0 of 9 |
| GFTLNSYGIS | VIYSDGRRTFYGQSVK | GRAAGTFDS | 2.37 2.36 2.94 | 1 of 9 (4.46) |
| GFTLNSYNIS | VIYSDGRRTFYGDHVK | SRAAGTFDS | nd nd 3.90 | 0 of 9 |
| GFTLNSNGIS | VIYSKGRRTFYGDSVK | GRAAKTFDS | 3.81 nd 4.03 | 3 of 9 (4.27) |
| GFTLNYYGIS | VIYSDGRRTFYGDSVK | GRAAGTYDS | 3.67 2.83 2.98 | 1 of 9 (4.00) |
| GFTLNSYGIS | RIYSDGRRTFYGFSSK | GRAAGTFDS | nd nd nd | 1 of 9 (3.77) |
| GFTLNSYGIS | VIYSDGRRTFYGIEVK | GRAAGTFDS | nd nd nd | 1 of 9 (4.66) |
| GFTHNSYGIS | VIYSDGRRTFYGDSVK | GHAAGTEDS | nd nd nd | 0 of 9 |
| GFTLNSYGIS | VIYSDGRRTFMGDSVK | GRAAGHFDS | nd 4.97 4.72 | 2 of 9 (3.56) |
| GFTLNSYGIS | VIYFDGRRTFYCDSVK | GRAAGTFDS | nd nd nd | 0 of 9 |
| GFTLNSYGRS | VIYSIGRRTFYGDSVK | GRAARTFDS | nd 2.94 4.07 | 2 of 9 (3.63) |
| GCTLNSYAIS | VIYSDGRRTFYGDSVM | GRAAGTFDS | nd nd nd | 0 of 9 |
| NFTLNSYGMS | VIYSDGRRTFYKDSVK | GRAAGTFDS | nd nd nd | 0 of 9 |
| AFTLNSYGID | VIYSDGRRTFYGDSVK | GRAAGCFDS | nd nd nd | 2 of 9 (3.92) |
| GFTLVSYGIS | VIYSWGRRTFYGDWVK | GRAAGTFDS | nd 3.23 nd | 2 of 9 (3.62) |
| NFTTNSYGIS | VIYSDGRRTFYGDSNK | GRAAGTFDS | nd nd nd | 1 of 9 (4.23) |
| GFTLNSYGIS | VIYSDGRRTFYGGSVV | GRAAGTIDS | nd nd nd | 1 of 9 (1.88) |
| GFTLNSYGIS | VIYSKGRRTFYGDSVK | GRAAGFTDS | nd nd nd | 1 of 9 (3.27) |
| GFTLNSYGIS | KIYSDGRRTMYGDSVK | GRAAPTFDS | nd 2.06 nd | 0 of 9 |
| GFTLNSPGIS | VIYSDLRRTFYGDSVE | GRAAGTFDS | nd nd nd | 1 of 9 (3.47) |
| GFTLNKYGIS | VIYSDGRRTFYGDSVK | GKALGTFDS | 3.07 nd nd | 4 of 9 (4.57) |
| GFDLNSYGIS | VMYSDGRRTFYGDSVK | GRAAGVFDS | 1.77 1.60 1.80 | 2 of 9 (4.70) |
| GFTLNSRGIS | VIYSDGRRTFYGLSVK | GRAAGTFSS | nd nd 5.20 | 0 of 9 |
| GFTLNTGGIS | VIYSDGRREFYGDSVK | GRAAGTFDS | nd nd nd | 0 of 9 |
| YFTLNSHGIS | VIYSDGRRTFYGFSVK | GRAAGTFDS | nd nd nd | 0 of 9 |
| GFTLNSFGIS | VIYSDGRRTFYGDSVK | GSAAGTFDS | 0.67 1.06 0.97 | 2 of 9 (4.36) |
| GFTVNSYGIS | VIYSDGRRTFHGDSSK | GRAAGTFDS | nd nd nd | 1 of 9 (3.08) |
| AFTLNSYGIS | VGYSDGRRTFYGDSVK | GRAAGTFPS | 4.56 3.39 nd | 4 of 9 (3.65) |
| GFTLNSYGIS | PIYSDGRRTFMGDSVK | GRAAGTFDP | nd nd nd | 1 of 9 (3.06) |